Earlier results in patent US11254696B2, “Dianilinopyrimidine compound for inhibiting kinase activity” (Shenzhen Targetrx, Inc., priority 2017, dated 2022).

How the values were obtained:
[1] = tested on: ALK I1171N/T/S; conditions: Crizotinib-resistant mutation; cited from earlier work
[2] = tested on: ALK+NSCLC; conditions: cited from earlier work

Row | Structure (SMILES) | effect on I1171N/T/S [1] | ALK-positive patients with no objective response at the beginning of therapy ([2]; ALK-positive patients) | median progression-free survival ([2]; patients with ALK+NSCLC) | objective response rate ([2]; patients with ALK+NSCLC)
1 | CCc1cc2c(cc1N1CCC(N3CCOCC3)CC1)C(C)(C)c1[nH]c3cc(C#N)ccc3c1C2=O [Alectinib] | no effect |  |  | 
2 | C[C@@H](Oc1cc(-c2cnn(C3CCNCC3)c2)cnc1N)c1c(Cl)ccc(F)c1Cl [Crizotinib] |  | About 40% | 8-11 months | 60-74%
